Key:
[1] = biological target: xanthine-xanthine oxidase reaction (Homo sapiens, UniProt P47989); test: Superoxide measurement in the xanthine-xanthine oxidase reaction; assay type: biochemical
[2] = Reaction of NBD-Cl with KO2: stopped-flow kinetics, absorbance and fluorescence calibration; assay type: physicochemical; settings: kinetic stopped-flow analysis, DMSO

Chains of the proteins cited; added tags and fusions are not shown.
UniProt P47989, whole entry, looked up: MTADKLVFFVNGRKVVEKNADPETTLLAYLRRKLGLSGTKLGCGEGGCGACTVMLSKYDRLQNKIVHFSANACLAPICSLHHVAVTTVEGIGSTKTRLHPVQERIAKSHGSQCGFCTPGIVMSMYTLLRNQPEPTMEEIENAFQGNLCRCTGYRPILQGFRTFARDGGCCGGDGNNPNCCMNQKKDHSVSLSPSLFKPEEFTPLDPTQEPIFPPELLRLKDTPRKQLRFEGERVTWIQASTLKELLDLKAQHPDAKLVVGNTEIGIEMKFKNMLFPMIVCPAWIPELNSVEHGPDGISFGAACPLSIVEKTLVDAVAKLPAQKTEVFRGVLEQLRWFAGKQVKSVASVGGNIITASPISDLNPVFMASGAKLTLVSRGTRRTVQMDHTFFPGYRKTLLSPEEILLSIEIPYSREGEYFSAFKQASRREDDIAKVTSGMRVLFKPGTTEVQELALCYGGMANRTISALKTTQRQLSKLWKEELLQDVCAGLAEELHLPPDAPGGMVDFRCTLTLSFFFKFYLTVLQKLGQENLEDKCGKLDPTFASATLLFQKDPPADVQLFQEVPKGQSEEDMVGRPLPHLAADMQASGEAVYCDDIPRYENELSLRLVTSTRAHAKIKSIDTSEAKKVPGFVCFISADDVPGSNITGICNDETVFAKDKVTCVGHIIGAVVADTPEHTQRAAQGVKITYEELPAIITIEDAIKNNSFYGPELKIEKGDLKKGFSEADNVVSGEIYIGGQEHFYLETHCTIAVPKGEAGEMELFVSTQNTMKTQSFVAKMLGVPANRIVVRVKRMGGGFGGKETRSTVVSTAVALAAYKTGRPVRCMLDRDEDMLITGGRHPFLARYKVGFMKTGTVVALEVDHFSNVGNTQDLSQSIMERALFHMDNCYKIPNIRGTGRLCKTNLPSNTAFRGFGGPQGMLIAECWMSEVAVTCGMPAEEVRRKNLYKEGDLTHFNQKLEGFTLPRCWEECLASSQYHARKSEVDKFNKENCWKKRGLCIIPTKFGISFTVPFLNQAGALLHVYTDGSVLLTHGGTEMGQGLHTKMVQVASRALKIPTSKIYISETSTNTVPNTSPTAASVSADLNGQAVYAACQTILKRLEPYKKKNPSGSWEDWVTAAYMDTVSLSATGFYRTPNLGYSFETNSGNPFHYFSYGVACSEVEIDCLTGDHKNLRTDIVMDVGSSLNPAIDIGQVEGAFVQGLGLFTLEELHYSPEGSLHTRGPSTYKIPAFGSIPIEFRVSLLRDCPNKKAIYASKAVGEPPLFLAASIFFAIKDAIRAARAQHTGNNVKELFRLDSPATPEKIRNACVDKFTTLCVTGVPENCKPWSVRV

With `O=[N+]([O-])c1ccc(Cl)c2nonc12` the “effect of the probe on the xanthine-xanthine oxidase reaction rate” value ([1]; 15 μM xanthine, 100 nM xanthine oxidase, XTT 600 μM) was “slight activating effect”, the “measured amount of superoxide” value ([1]; 15 μM xanthine, 100 nM xanthine oxidase, maximum absorbance 0.048 at 470 nm) was 12.0 µM and the “Superoxide at 470 nm (initial rate of superoxide formation)” value ([1]; 50 μM xanthine, 150 nM xanthine oxidase, phosphate buffer pH 7.4, NBD-Cl 100 μM, XTT 600 μM) was 0.127 ± 0.002. For the same compound, the “second-order bimolecular rate constant for the reaction between NBD-Cl and KO2” value [2] was 1.5±0.3×10^5 M^−1s^−1.
